Experimental data reported in PubChem BioAssay AID824 (SRMLSC, 2007).
Only a part is listed here, and it is no random draw. Inconclusive results are not listed. Calls of active or inactive are those of the source.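 Rule for the calls: active = viability at or below 27.92% in each of two runs, the all-compound median minus 4 SD; inconclusive = no clear call, values can overlap the other calls; inactive = the rest.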

Test: growth suppression of PTEN-deleted HCT116, pilot screen, cell-based, HCT116 clonal line, CellTiter-Glo (AID 824);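 note: 0% = 20 µM Hyamine control and 100% = vehicle cell control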
Conditions: 60 h, at 10 µM, stronger effect = lower value

Row | SMILES | viability
1 | COC(=O)c1cc2c(s1)N=C(c1ccccc1)N(C)P2(=O)N1CCOCC1 (stereo unspecified) | inactive: 93.8%
